{
  "sequences": {"note": "By UniProt entry, the sequences of proteins in these tests, tags left out.", "UniProt P59768, whole entry": "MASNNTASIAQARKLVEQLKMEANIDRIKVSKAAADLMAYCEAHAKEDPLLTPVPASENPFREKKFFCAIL"},
  "source": "the supplement of paper PMC6411743",
  "biological_target": "G3V2N0 and related entries (UniProt P59768)",
  "assay": "NP40-soluble protein abundance relative to vehicle (solubility fold change) (ratio); higher = more soluble protein in presence of AMP-PNP",
  "method": "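Solubility proteome profiling in Jurkat crude lysate. Lysate was treated with Mg-AMP-PNP, a non-hydrolysable ATP analog (0.1-10 mM), for 10 min at room temperature and 3 min at 37 °C, then solubilised with 0.8% NP40 and benzonase, followed by ultracentrifugation. Proteins were quantified by TMT10 LC-MS/MS; the value is the NP40-soluble abundance relative to the NP40-processed vehicle, from 3 independent experiments.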",
  "note": "± gives the standard deviation of the averaged measurements. Only a part is listed here, and it is no random draw.",
  "data": [
    {"smiles": "Nc1ncnc2c1ncn2[C@@H]1O[C@H](COP(=O)(O)OP(=O)(O)NP(=O)(O)O)[C@@H](O)[C@H]1O", "note": "[adenylyl imidodiphosphate]", "values": [
      {"measurement": "NP40-soluble protein abundance", "setting": "concentration: 1mM", "value": "0.878 ± 0.05"},
      {"measurement": "NP40-soluble protein abundance", "setting": "concentration: 2mM", "value": "0.916 ± 0.025"},
      {"measurement": "NP40-soluble protein abundance", "setting": "concentration: 4mM", "value": "0.841 ± 0.074"},
      {"measurement": "NP40-soluble protein abundance", "setting": "concentration: 6mM", "value": "0.846 ± 0.067"},
      {"measurement": "NP40-soluble protein abundance", "setting": "concentration: 8mM", "value": "0.84 ± 0.073"},
      {"measurement": "NP40-soluble protein abundance", "setting": "concentration: 10mM", "value": "0.808 ± 0.12"}
    ]}
  ]
}
